The entries are a selection whose mix differs from that of the whole data set. Active and inactive are the calls of the source.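 The calls were made as follows: active = inhibition of the reporter signal at or above 50%; inactive = inhibition below 50%.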
test: inhibitors of poly I:C-induced TLR3 signaling, primary screen, cell-based, poly I:C stimulus, luciferase, 10K MLSCN set (AID 602277); conditions: HEK293-TLR3 RL24 IRF3 luciferase reporter, at 10 µM, stronger effect = higher value

Compound	inhibition
Fc1ccccc1NC1CCN(Cc2ccccc2)CC1	inactive: 26.4%

Source: PubChem BioAssay AID602277 (University of Pittsburgh Molecular Library Screening Center, 2012)
